The values below come from US9116112B2, “UV protective skin treatment compositions and screening methods” (JR Chem LLC, priority 2011, dated 2015).

Some compounds may have been tested in ways that are not shown here.

The nature of the test: Briggs-Rauscher Oscillation Reaction Method (BROM) antioxidant capacity. The format is biochemical. As to conditions: Table 3, solvent Water.

In the case of Triethanolamine Salicylate, the “Result [s/μg] (BROM by Strength)” value was “No clear”.
